Apoferritin bind: binds horse apoferritin like a general anesthetic; apoferritin/1-aminoanthracene competitive binding, fluorescence; Potency, µM (top dose mostly 77.5 µM), inactives show at the highest dose activity change, negative = displacement, usual class: inhibitors; hit rate 0.074% among 350,000; AID 485281; note: potency is the fitted concentration of half-maximal effect; % is set by controls: 0 for no effect and ±100 for the full control effect; nearly all actives have a fitted effect of over 20% in size
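Horse-spleen apoferritin (10 uM) in 50% saturated 1-aminoanthracene in PBS was incubated 10 min at room temperature with compound. Fluorescence (ex 380, em 535 nm) was normalized to free and bound 1-AMA, with concentration-response fitted by a four-parameter Hill equation.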
p53 reactivator: mutant p53 re-activation in reporter cells. H1299 p53-A138V BP100-luciferase reporter, luminescence, 24 h. Potency, µM (series often up to 92.2 µM), for inactives: at the highest dose activity change, positive = activation, usual class: activators. hit rate 0.063% among 320,000. AID 504706; note: potency is the fitted concentration of half-maximal effect; % of control where 0% means no effect; nearly all actives have a fitted effect of over 45% in size
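H1299 (p53-null), stable ts p53-A138V + BP100-Luc; 1000 cells/well, Opti-MEM/10% FBS; cpd 4 pt, 1:5; 24 h, 37 deg C, 5% CO2; detection reagent 10 min RT; luminescence.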
BRCA1 expr act: BRCA1 expression activation; hit rate 1.1% among 380,000; MCF7-BRCA1-FFLuc reporter, luminescence, 48 h; response scale: scaled: vehicle 0%, 10 µM genistein 100%; AID 624202; Potency, µM (top dose mostly 46.1 µM), inactives show at the highest dose activation, usual class: activators; note: potency is the fitted concentration of half-maximal effect; nearly all actives have a fitted effect of over 80% in size
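Cells: MCF7-BRCA1-FFLuc, 2000/well. Exposure: 48 h, 37 °C, 5% CO2. Read: luminescence, 15 min post-substrate. Controls: genistein 10 microM (maximal activation), DMSO (neutral).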
miR-21 reporter: raises the signal of a miR-21 reporter | HeLa miR-21 FLuc reporter, luciferase, 48 h | Potency, µM (doses to about 38.3 µM), for the others: at the highest dose reporter change, positive = more light | 340,000 tested, under 10 active | AID 2288; active = well fitted rising curve with a large enough effect; inconclusive = small, poorly fitted or top-dose-only effect; inactive = no such curve, though single readings can be large or run the other way;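 also: % of control where 0% means no effect; miR-21 action dims this reporter so a rising signal means less miR-21 action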
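Compounds were titrated across several concentrations (up to approximately 40 uM) and incubated 48 hours with HeLa miR-21-FLuc reporter cells (miR-21 target sequence downstream of FLuc, endogenous miR-21). Readout was firefly luciferase luminescence after lytic detection reagent.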
* = called active by the depositor; ? = inconclusive; . = no result given. Only some compounds are listed: those with a hit (about 1.1% of all), similar ones and a draw of the others. Unless noted, calls come from the whole dose curve; as a rule, active = well fitted curve in the direction sought with a large enough effect; inconclusive = small, poorly fitted or top-dose-only effect, or another doubt; inactive = no such curve, though single readings can be large; an effect the other way counts as inactive or inconclusive.

SMILES	Apoferritin bind	p53 reactivator	BRCA1 expr act	miR-21 reporter
Oc1ccc(Br)cc1/C=N/n1c(-c2ccccc2)n[nH]c1=S	2%	.	-2%	-1%
COc1ccc(C(=O)Nc2ccc3ccccc3c2)cc1OC	15%	.	5.6µM*	-59%
COc1ccc(NC(=O)c2ccc3snnc3c2)cc1	0%	?	6.3µM*	-32%
O=C(c1ccc(OCC2CCCO2)cc1)N1CCc2ccccc2C1 (stereo unspecified)	-22%	-1%	11µM*	-32%
COc1cc(C(=O)Nc2ccc3ccccc3c2)cc(OC)c1OC	-21%	19%	46%	1%
O=C(Nc1nc2ccccc2s1)c1ccc(OCC2CCCO2)cc1 (stereo unspecified)	-14%	28µM*	-72%	28%
O=C(c1ccc(OCC2CCCO2)cc1)N1CCN(c2ccccc2)CC1 (stereo unspecified)	-24%	3%	0%	-5%
CC(=O)c1ccc(NC(=O)c2ccc3snnc3c2)cc1	0%	14%	?	-45%
CCOC(=O)c1cc(-c2ccc(OC)cc2)n(CCC(=O)NCCc2ccccc2)c1C	-8%	.	.	-8%
COc1ccc(C(=O)Nc2nc3ccccc3s2)cc1OC	-15%	-5%	4.5µM*	-18%
O=C1CC2CCCN2C=C1I (stereo unspecified)	.	-1%	10%	.
O=C(CCn1c(=O)c2ccccc2n(Cc2ccc(F)cc2Cl)c1=O)NCc1ccc2c(c1)OCO2	-2%	.	2%	-1%
CC(=O)c1ccc(NC(=O)CCCC(=O)c2ccccc2)cc1	3%	19%	19%	-2%
CC(=O)c1ccc(NCCC(=O)c2ccccc2)cc1	-4%	-11%	11µM*	-26%
COc1cc(/C=C(\C#N)c2nc3ccc(C)cc3[nH]2)c([N+](=O)[O-])cc1OC	?	6%	-33%	9%
COc1cc(/C=C(\C#N)c2nc3ccc(C)cc3[nH]2)cc([N+](=O)[O-])c1O	?	7%	7.1µM*	-49%
Cn1cccc1C(=O)OCC(=O)N1CCc2ccccc21	.	?	10µM*	.
O=C(COc1ccccc1)N1CCc2ccccc21	?	?	100%	-64%
Cc1ccc(C(=O)OCC(=O)N2CCc3ccccc32)cc1	-20%	11%	79%	-27%
O=C(COc1ccc(Br)cc1)N1CCc2ccccc21	-8%	12%	7.1µM*	-33%
O=C(Cc1c[nH]c2ccccc12)N1CCc2ccccc21	?	29%	11µM*	-44%
O=C(CSc1c[nH]c2ccccc12)N1CCCc2ccccc21	-4%	-6%	-29%	-9%
CCOC(=O)c1c(C)oc2nc(C)nc(NCCCN3CCN(c4cccc(C)c4)C(C)C3)c12 (stereo unspecified)	53%	.	.	2%
CC1CCN(C(=O)c2c(NC(=O)c3ccccc3Cl)sc3c2CCC(C(C)(C)C)C3)CC1 (stereo unspecified)	-13%	.	.	-2%
Cc1ccc(NC(=O)c2cnccn2)cc1C	-9%	14%	7.9µM*	-50%
Cc1ccc(NC(=O)c2cnccn2)cc1	-2%	23%	107%	-57%
O=C(Nc1ccc(Br)cc1)c1cnccn1	-15%	?	8.9µM*	-49%
O=C(NC(=S)Nc1cccnc1Cl)c1ccco1	-6%	22%	10µM*	-46%
CN(C)c1ccc(NC(=O)CN2CCc3ccccc3C2)cc1	-12%	?	11µM*	-42%
Cc1ccc(NC(=O)N2CCc3ccccc3C2)cc1	?	20%	?	-36%
COc1ccc(NC(=O)N2CCc3ccccc3C2)cc1	-11%	26%	7.9µM*	-54%
O=C(CNc1cccc(F)c1)N1CCc2ccccc2C1	-22%	?	7.9µM*	-50%
CC(=O)c1ccc(NC(=O)N2CCc3ccccc3C2)cc1	?	12%	11µM*	-19%
CCOc1ccc(NC(=O)N2CCc3ccccc3C2)cc1	-6%	20%	59%	-50%
O=C(CN1CCc2ccccc2C1)Nc1ccc(F)cc1	-8%	10%	-6%	-10%
Cc1cc(C)c(NC(=O)CCS(=O)(=O)c2cc3c(cc2Cl)NC(=O)CO3)c(C)c1	-2%	.	-3%	-7%
COC(=O)c1c(NC(=O)Cc2coc3cc(C)ccc23)sc2c1CCC2	65%	.	.	-1%
CC(=O)c1cccc(NC(=O)N2CCc3ccccc3C2)c1	?	17%	8.9µM*	-46%
O=C(Cc1ccc(Cl)cc1)N1CCc2ccccc2C1	.	.	10µM*	.
CCc1nnc(NC(=O)c2ccc(NC(=O)C(C)C)cc2)s1	-2%	5%	11µM*	-45%
COCc1nnc(NC(=O)c2ccc(NC(=O)C(C)C)cc2)s1	-10%	16%	22%	-15%
CCc1nnc(NC(=O)c2ccc3c(c2)C(=O)N(C(C)(C)C)C3=O)s1	-9%	?	14µM*	-39%
Cc1ccc(C(=O)N/N=C/C2=Cc3ccccc3OC2C)cc1 (stereo unspecified)	39%	?	44%	-16%
CC1Oc2ccccc2C=C1/C=N/NC(=O)c1ccccc1 (stereo unspecified)	39%	?	3.2µM*	-48%
CC(C)N(C(=O)CSc1nnc(C2CC2)n1C1CC1)c1ccccc1	.	2%	-3%	.
COc1ccc(C(O)c2ncc(-c3ccccc3Cl)[nH]2)cc1 (stereo unspecified)	.	.	30%	.
CN(C)C(=S)SCC(=O)Nc1ccc(Cl)cc1Cl	-20%	18%	10µM*	-41%
O=C(CC(=O)Nc1ccc(Cl)cc1Cl)Nc1ccc(Cl)cc1Cl	-12%	12%	-30%	-1%
CC(C)CC(OC(=O)c1nsc(Cl)c1Cl)C(=O)NC1CCCC1 (stereo unspecified)	0%	5%	-15%	-1%
Cc1ccc(SC/C(O)=C(\C#N)c2nc3ccccc3n2C)cc1	-17%	24%	13µM*	-25%

Given field by field: 4 of the compounds above.
> Cc1ccc(NC(=O)c2cnccn2)cc1
  Apoferritin bind = -2%
  p53 reactivator = 23%
  BRCA1 expr act = 107%
  miR-21 reporter = -57%

> O=C(Nc1ccc(Br)cc1)c1cnccn1
  Apoferritin bind = -15%
  p53 reactivator = ?
  BRCA1 expr act = 8.9µM*
  miR-21 reporter = -49%

> O=C(NC(=S)Nc1cccnc1Cl)c1ccco1
  Apoferritin bind = -6%
  p53 reactivator = 22%
  BRCA1 expr act = 10µM*
  miR-21 reporter = -46%

> CN(C)c1ccc(NC(=O)CN2CCc3ccccc3C2)cc1
  Apoferritin bind = -12%
  p53 reactivator = ?
  BRCA1 expr act = 11µM*
  miR-21 reporter = -42%

More results follow:
SMILES	Apoferritin bind	p53 reactivator	BRCA1 expr act	miR-21 reporter
Cn1c(/C(C#N)=C(\O)CN2CCN(Cc3ccccc3)CC2)nc2ccccc21	-12%	-6%	-10%	-6%
CCC(C)NC(=O)c1cc2cc3ccc(OC)cc3nc2o1 (stereo unspecified)	10%	?	11µM*	-44%
COc1ccc2nc3oc(C(=O)N4CCCCC4)cc3cc2c1	23%	?	7.1µM*	-66%
CCOC(=O)c1c(C)[nH]c(C)c1S(=O)(=O)N1CCC(C(=O)Nc2ccc(C)c(N(C)C)c2)CC1	-9%	.	7%	-4%
CC(C)NC(=O)c1cccc2c(-c3ccc(F)c(F)c3)coc12	.	.	1µM*	.
O=C(Nc1ccc2c(c1)ncn2C1CCCCC1)c1ccco1	-16%	?	13µM*	-60%
O=C1c2ccccc2CN1c1ccccc1	-13%	8%	6.3µM*	-51%
Cc1ccc(N2Cc3ccccc3C2=O)cc1	-12%	.	?	-5%
CCOc1ccc2nc(N3CCOCC3)nc(C)c2c1	232%	?	4.5µM*	-58%
CN(C)c1ccc(NC(=O)CSc2nnc(C3CCCCC3)n2N)cc1	?	?	-2%	-11%
CCOc1nc(C)ccc1-c1noc(-c2ccccn2)n1	-17%	?	35%	-60%

Quoted from above, two compounds:
SMILES	Apoferritin bind	p53 reactivator	BRCA1 expr act	miR-21 reporter
CN(C)c1ccc(NC(=O)CSc2nnc(C3CCCCC3)n2N)cc1	?	?	-2%	-11%
CCOc1nc(C)ccc1-c1noc(-c2ccccn2)n1	-17%	?	35%	-60%
